In one data set the target is MOR (Homo sapiens (Human), UniProt P35372). Description: Receptor binding, [3H]diprenorphine.
Another data set has as its system mice. Description: Open field locomotor response. To be noted: mouse.

Protein sequences, listed by entry. Tags and fused reporters are not part of them.
UniProt P35372, whole entry: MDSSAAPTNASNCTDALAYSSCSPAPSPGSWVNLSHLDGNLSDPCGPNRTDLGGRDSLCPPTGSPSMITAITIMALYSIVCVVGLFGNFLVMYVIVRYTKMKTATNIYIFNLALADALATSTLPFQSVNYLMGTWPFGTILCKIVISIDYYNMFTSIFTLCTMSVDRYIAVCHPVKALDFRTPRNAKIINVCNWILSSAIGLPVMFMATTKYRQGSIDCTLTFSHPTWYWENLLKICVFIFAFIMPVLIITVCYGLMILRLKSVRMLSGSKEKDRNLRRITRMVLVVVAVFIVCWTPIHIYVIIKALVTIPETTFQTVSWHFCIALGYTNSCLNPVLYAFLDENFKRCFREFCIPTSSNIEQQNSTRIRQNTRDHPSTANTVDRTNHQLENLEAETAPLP

The values below come from patent US10702498B2 (priority 2015, dated 2020).

Molecules are shown by their SMILES. Read-outs that look alike come from different tables or passages of the source.

By Ki is commonly meant a measure of affinity in units of concentration, obtained from inhibition or displacement.

`CN(C)[C@H](CNC(=O)NCCc1cn(CCOCCOCCN=[N+]=[N-])nn1)Cc1ccc(O)cc1` [DD 161, (S)-1-(2-(1-(2-(2-(2-azidoethoxy)ethoxy)ethyl)-1H-1,2,3-triazol-4-yl)ethyl)-3-(2-(dimethylamino)-3-(4-hydroxyphenyl)propyl)urea] came in with a Ki at MOR of 4700 nM. Compound `CN(C)[C@H](CNC(=O)NCCc1cn(CCOCCOCCOCCN=[N+]=[N-])nn1)Cc1ccc(O)cc1` [DD 165, (S)-1-(2-(1-(2-(2-(2-(2-azidoethoxy)ethoxy)ethoxy)ethyl)-1H-1,2,3-triazol-4-yl)ethyl)-3-(2-(dimethylamino)-3-(4-hydroxyphenyl)propyl)urea] displayed a Ki at MOR (binding affinity Ki [nM] hMOR) of 3500 nM. Turning to `CN1CC[C@]23c4c5ccc(O)c4O[C@H]2[C@@H](O)C=C[C@H]3[C@H]1C5` [Morphine, morphine, reference compound], the “open field locomotion” value in the data set on mice is listed as “induced mouse hyperlocomotion”.
